The target in the experiment is CXCR4 (Homo sapiens (Human), UniProt P61073). The experiment is described as follows: Cellular impedance change induced by SDF-1a (cellular dielectric spectroscopy). The class given is cell-based. Particulars: read-out: Antagonist IC50; HeLa cells, endogenous CXCR4, EC50 concentration of SDF-1a, 30 minutes.

Sequences of proteins named here, by UniProt entry; tags and fusion partners are left off.
UniProt P61073, whole entry: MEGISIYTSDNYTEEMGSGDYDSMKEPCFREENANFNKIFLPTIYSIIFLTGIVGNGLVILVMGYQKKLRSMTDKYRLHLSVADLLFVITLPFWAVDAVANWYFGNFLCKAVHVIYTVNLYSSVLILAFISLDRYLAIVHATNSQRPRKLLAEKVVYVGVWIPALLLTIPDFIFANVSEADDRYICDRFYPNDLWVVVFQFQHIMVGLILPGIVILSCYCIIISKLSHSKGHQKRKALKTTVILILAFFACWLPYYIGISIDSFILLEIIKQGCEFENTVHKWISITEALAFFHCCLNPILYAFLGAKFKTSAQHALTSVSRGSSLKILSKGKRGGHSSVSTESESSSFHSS

The structures appear in SMILES notation.

A word on the IC50: it is the point on the concentration scale where inhibition reaches its midpoint. Turning to `NCCCCN(Cc1nccc2c3ccccc3n(CC(=O)O)c12)[C@H]1CCCc2cccnc21`, the IC50 amounted to 8.1 nM.
